This note sets out measurements from PubChem BioAssay (NCI).

Only a part is listed here, and it is no random draw.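 Method: cells in 96-well plates; compound added at one concentration; 48 h incubation; percent growth measured; values under 10 scored active.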 Calls of active or inactive are those of the source.

What all share (experiment): NCI-60 one-dose screen, 48 h (100 = growth as untreated, 0 = no growth, -100 = all killed)
Conditions in all cases: 10 µM

The test system of test [1] is HCT-15 colon.
Test [2] relates to HT29 colon.
Test [3] concerns SNB-75 CNS.
Test [4] deals with SNB-19 CNS.
In test [5] the test system is U251 CNS.
The test system of test [6] is PC-3 prostate.
Test [7] relates to SK-MEL-5 melanoma.
Test [8] deals with UACC-62 melanoma.
Test [9] concerns LOX IMVI melanoma.
The subject of test [10] is SK-MEL-28 melanoma.

Turning to `O=C(Cl)c1c([N+](=O)[O-])cc([N+](=O)[O-])cc1[N+](=O)[O-]`, the growth in test [1] was active: 5.41%; in [2], active: -51.6%; in test [3], inactive: 86.3%; in test [4] it was inactive: 85.8%; in [5] it was inactive: 77.3%; in test [6], inactive: 77.5%. Besides, the growth in [7] is inactive: 83.5%; in test [8], inactive: 85.5%; in test [9], inactive: 12.5%; in test [10], inactive: 37.2%.
In the case of `O=[N+]([O-])c1cc([N+](=O)[O-])c(C(F)(F)F)c([N+](=O)[O-])c1O`, the growth in [1] was inactive: 102%; in test [2] it was inactive: 108%; in test [3] it was inactive: 86.2%; in test [5] it was inactive: 113%; in [6], inactive: 93.5%; in test [7], inactive: 85.9%. The values for the growth in test [8], in test [9] and in [10] were inactive: 87.1%, inactive: 96.9% and inactive: 97.9%, respectively.
On to `CCCCCCCOP(=O)(CC)OCCCCCCC`, for which the growth in test [1] is inactive: 104%; in test [2], inactive: 103%; in test [3] it was inactive: 80.4%; in test [4] it was inactive: 95.1%; in [5], inactive: 99.7%; in test [6], inactive: 97.6%. Moreover, the growth in test [7] is inactive: 99.9%; in test [8], inactive: 96.3%; in test [9], inactive: 94.5%; in test [10], inactive: 100%.
On to `O=[N+]([O-])OCC(O[N+](=O)[O-])C(CO[N+](=O)[O-])O[N+](=O)[O-]` (centres undefined), for which the growth is inactive: 105% in test [1]; inactive: 120% in [2]; inactive: 115% in test [3]; inactive: 112% in test [4]; inactive: 120% in [5]; inactive: 99.7% in test [6]. The growth is inactive: 116% in test [7], inactive: 108% in [8], inactive: 99.9% in test [9] and inactive: 115% in test [10].
Turning to `CN(CCO)CCCl.O=[N+]([O-])c1cc([N+](=O)[O-])c(O)c([N+](=O)[O-])c1`, the growth is inactive: 95.6% in [1]; inactive: 99.8% in [2]; inactive: 96.2% in test [3]; inactive: 101% in [4]; inactive: 96.8% in test [5]; inactive: 91.9% in test [6]. The growth in test [7] is inactive: 99.4%; in test [8], inactive: 89.5%; in test [9], inactive: 97%; in test [10] it was inactive: 103%.
In the case of `O=C1N([N+](=O)[O-])CCN1[N+](=O)[O-]`, the growth in test [1] is inactive: 96.9%; in test [2], inactive: 111%; in [3], inactive: 84.8%; in [4] it was inactive: 104%; in test [5], inactive: 95.8%; in [6] it was inactive: 94.3%. The growth in test [7] was inactive: 103%; in test [8] it was inactive: 105%; in test [9] it was inactive: 98.8%; in [10] it was inactive: 94.4%.
As to `NN/C(N)=N/[N+](=O)[O-]`, the growth in test [1] is inactive: 105%; in test [2], inactive: 108%; in [3], inactive: 51.4%; in test [4], inactive: 104%; in test [5], inactive: 102%; in test [6], inactive: 109%. For the same compound, the growth in [7] is inactive: 106%; in test [8] it was inactive: 101%; in test [9] it was inactive: 95.9%; in test [10], inactive: 107%.
On to `O=[N+]([O-])c1cc([N+](=O)[O-])c(O)c([N+](=O)[O-])c1.c1ccc(Cc2ccncc2)cc1`, for which the growth in test [1] was inactive: 104%; in [2] it was inactive: 106%; in test [3] it was inactive: 88.1%; in test [4], inactive: 104%; in test [5] it was inactive: 98.8%; in test [6], inactive: 93.2%. Moreover, the growth in test [7] is inactive: 98.7%; in test [8] it was inactive: 104%; in test [9] it was inactive: 102%; in [10] it was inactive: 107%.
Regarding `CCOP(=O)(CC)OCC`, the growth in test [1] was inactive: 93.1%; in [2], inactive: 111%; in test [3] it was inactive: 80.5%; in test [4] it was inactive: 95.8%; in [5], inactive: 94.5%; in [6] it was inactive: 96.6%. The growth in test [7] was inactive: 101%; in test [8], inactive: 96.1%; in test [9] it was inactive: 99.3%; in test [10], inactive: 103%.
For the compound `CP(=O)(OCCCl)N(CCCl)CCCl` (centres undefined), the growth in [1] was inactive: 89.9%; in test [2], inactive: 79.2%; in [3], inactive: 88.1%; in [4] it was inactive: 102%; in test [5], inactive: 104%; in test [6], inactive: 101%. The growth was inactive: 101% in test [7], inactive: 104% in test [8], inactive: 106% in test [9] and inactive: 102% in test [10].
As to `CCN(CC)CCS`, the growth in test [1] was inactive: 104%; in test [2], inactive: 103%; in test [3], inactive: 86.6%; in [4] it was inactive: 97.6%; in [5], inactive: 98.1%; in [6], inactive: 96.2%. In addition, the growth in [7] is inactive: 108%; in test [8] it was inactive: 109%; in [9] it was inactive: 107%; in [10] it was inactive: 114%.
`CP(=O)(OCCCCl)N(CCCl)CCCl` (centres undefined): the growth is inactive: 96.8% in test [1]; inactive: 109% in [2]; inactive: 75.6% in test [3]; inactive: 109% in test [4]; inactive: 93.1% in [5]; inactive: 105% in [6]. For the same compound, the growth is inactive: 96.9% in [7], inactive: 103% in test [8], inactive: 105% in test [9] and inactive: 101% in [10].
On to `O=[N+]([O-])c1cc([N+](=O)[O-])c(Nc2ccc(Cl)cc2)c([N+](=O)[O-])c1`, for which the growth in [1] is active: 7.61%; in test [2], active: 2.84%; in test [3] it was inactive: 51.1%; in test [4], inactive: 34.7%; in [5], active: 2.89%; in test [6], active: -4.61%. The growth in test [7] is inactive: 81.4%; in [8], inactive: 44.9%; in [9] it was active: 5.78%; in test [10] it was inactive: 81.4%.
